This note sets out measurements from article PMC7723054.

The list shows a part of the results.

Sequences and labels used below:
T1: LIN28A (human?, UniProt Q9H9Z2 1-209)
T1 sequence: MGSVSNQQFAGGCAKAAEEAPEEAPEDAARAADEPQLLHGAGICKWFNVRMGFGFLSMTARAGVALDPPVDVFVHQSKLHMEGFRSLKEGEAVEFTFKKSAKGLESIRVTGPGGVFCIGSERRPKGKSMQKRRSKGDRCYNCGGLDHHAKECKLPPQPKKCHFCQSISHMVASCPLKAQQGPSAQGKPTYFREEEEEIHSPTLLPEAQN

T2: CIRBP (Homo sapiens, UniProt Q14011 1-172)
T2 sequence: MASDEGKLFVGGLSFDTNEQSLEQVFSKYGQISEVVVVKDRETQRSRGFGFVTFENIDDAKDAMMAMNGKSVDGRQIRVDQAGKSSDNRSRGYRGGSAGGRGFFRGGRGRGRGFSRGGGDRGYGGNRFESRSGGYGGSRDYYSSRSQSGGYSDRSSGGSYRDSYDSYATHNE

T3: DHX36 (Homo sapiens, UniProt Q9H2U1 1-1008)
T3 sequence: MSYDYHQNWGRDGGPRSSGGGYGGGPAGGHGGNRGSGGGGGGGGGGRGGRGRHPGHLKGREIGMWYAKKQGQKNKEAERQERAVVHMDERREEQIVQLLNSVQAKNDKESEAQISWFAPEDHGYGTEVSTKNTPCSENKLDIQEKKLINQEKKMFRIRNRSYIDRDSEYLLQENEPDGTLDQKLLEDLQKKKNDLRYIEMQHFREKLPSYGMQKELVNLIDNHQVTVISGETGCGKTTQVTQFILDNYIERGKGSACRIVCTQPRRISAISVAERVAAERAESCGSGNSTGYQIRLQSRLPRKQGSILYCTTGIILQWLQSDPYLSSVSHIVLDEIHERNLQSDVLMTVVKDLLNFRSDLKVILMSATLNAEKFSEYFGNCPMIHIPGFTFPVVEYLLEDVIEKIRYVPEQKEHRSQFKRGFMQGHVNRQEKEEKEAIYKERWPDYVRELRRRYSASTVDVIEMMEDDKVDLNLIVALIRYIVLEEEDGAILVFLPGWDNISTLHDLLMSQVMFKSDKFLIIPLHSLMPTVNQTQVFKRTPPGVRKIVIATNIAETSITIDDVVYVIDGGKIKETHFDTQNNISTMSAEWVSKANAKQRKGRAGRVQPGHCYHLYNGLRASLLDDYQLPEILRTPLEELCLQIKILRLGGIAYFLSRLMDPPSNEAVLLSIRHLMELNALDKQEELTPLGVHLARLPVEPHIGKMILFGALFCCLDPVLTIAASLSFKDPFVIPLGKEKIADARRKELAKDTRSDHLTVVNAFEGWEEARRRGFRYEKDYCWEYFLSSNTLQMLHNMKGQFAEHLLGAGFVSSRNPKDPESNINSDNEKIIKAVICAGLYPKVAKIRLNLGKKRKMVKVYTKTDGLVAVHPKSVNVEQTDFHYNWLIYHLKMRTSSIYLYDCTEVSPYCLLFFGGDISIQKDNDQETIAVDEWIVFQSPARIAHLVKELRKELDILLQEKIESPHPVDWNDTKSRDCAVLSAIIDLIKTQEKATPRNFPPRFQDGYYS

B1: hsa-mir-4273 (structured_RNA)
RNA: GGGAAAAGCUGGUAGCCCCGAAUCAGUCGGUGUACGAAGUUUCAGCCAGUAAGCCUUGACUUAUGGCUAAAUGCUUCGCUGAAGCUUCGUGCAC
B2: hsa-mir-4721 (structured_RNA)
RNA: GGGAACCAGGACCGCCCUCAUACACUAAGGUGUACGAAGUUUCAGCCCAUCAAGCCCCACCAGAAGGUGGAGGCCCAGGUGAGGCUGAAGCUUCGUGCAC
B3: hsa-mir-492 (structured_RNA)
RNA: GGGACCAACCAGAGCGGAACUCUCUAGAGGUGUACGAAGUUUCAGCUCUUGGUGCCACCAUUGAGAACGCCAGGAGCUGAAGCUUCGUGCAC
B4: hsa-mir-1179 (structured_RNA)
RNA: GGGAACGUGCUCCAGGACUAUCCCCAUAGGUGUACGAAGUUUCAGCUUGGUGUGUAUUGCCUUGUCAAGCUGAAGCUUCGUGCAC
B5: hsa-mir-4470 (structured_RNA)
RNA: GGGACGACACUAGGGUUAAUCGAACCGCGGUGUACGAAGUUUCAGCGUCUCGGUCCUUUGGAACGUGGCGCUGAAGCUUCGUGCAC
B6: hsa-mir-412 (structured_RNA)
RNA: GGGAAAAGACUGCAUGCCUGACCGAAGGGGUGUACGAAGUUUCAGCAAGUAAUUGUUUCUAAUGUACUGCUGAAGCUUCGUGCAC
B7: hsa-mir-4736 (structured_RNA)
RNA: GGGAAGUUGCGGUUGCCCGUUAAGAUACGGUGUACGAAGUUUCAGCGCUGCCAUCUCCCACUGGCUGCGCUGAAGCUUCGUGCAC
B8: hsa-mir-4255 (structured_RNA)
RNA: GGGAACUUAAACUUCAGGAAAGCGCGUUGGUGUACGAAGUUUCAGCUGGAGUCAGUAUUGGUCUGGCCAGCUGAAGCUUCGUGCAC
B9: hsa-mir-4756 (structured_RNA)
RNA: GGGAAAAGUGCGGGUUGUCUAUGCAACCGGUGUACGAAGUUUCAGCCUGCUGCCGAUUCUGCACCAGGCUGAAGCUUCGUGCAC
B10: hsa-mir-7706 (structured_RNA)
RNA: GGGAAAAUUCAGAGCACCGACAGAACCCGGUGUACGAAGUUUCAGCGGAGCCCGAGCAGCCGCGGUGAAGCUGAAGCUUCGUGCAC
B11: hsa-mir-100 (structured_RNA)
RNA: GGGAAGCGCCCCAACCGAUACAUAUAUCGGUGUACGAAGUUUCAGCCUUGUGGUAUUAGUCCGCACAAGGCUGAAGCUUCGUGCAC
B12: hsa-mir-9-3 (structured_RNA)
RNA: GGGAUACCAUGGAAAAGCCCAUUCCAAGGGUGUACGAAGUUUCAGCGUAUGAGUGCCACAGAGCCGUCAUAAGCUGAAGCUUCGUGCAC
B13: hsa-mir-3179-4_3179-1_3179-3_3179-2 (structured_RNA)
RNA: GGGACAGUAAUAGGCGUCCAACCAUCGCGGUGUACGAAGUUUCAGCUUCUGCUGUGCCUUACAGCAGUAGAAGCUGAAGCUUCGUGCAC
B14: hsa-mir-5692c-1 (structured_RNA)
RNA: GGGAACGGGAUGGUGUAAUGCACGUUGCGGUGUACGAAGUUUCAGCUAAGAGUAAUAGCUCUCUAGGUUAUUAUGAAUAGCUGAAGCUUCGUGCAC
B15: hsa-mir-5580 (structured_RNA)
RNA: GGGCCGAAUUACCAGACAAGGACACGCAGGUGUACGAAGUUUCAGCUGUGUGCUGAGAAAAUUCACACAGCUGAAGCUUCGUGCAC
B16: hsa-mir-660 (structured_RNA)
RNA: GGGCAGAGCCUACCUGACUCCAAUGGUAGGUGUACGAAGUUUCAGCAGUUGUGAAUUCUCAAAACACCUGCUGAAGCUUCGUGCAC
B17: hsa-mir-4729 (structured_RNA)
RNA: GGGAAGCGAUAAUAGAACUGUCAUUACGGGUGUACGAAGUUUCAGCGCUAACUGUGACCUUAGCGCUGAAGCUUCGUGCAC
B18: hsa-mir-4521 (structured_RNA)
RNA: GGGAAAACAGGCCCACCUGGGUCAGAAUGGUGUACGAAGUUUCAGCUCAGUUUUGUAGCAUCAAAACUGCUGAAGCUUCGUGCAC
B19: hsa-mir-4432 (structured_RNA)
RNA: GGGACAUACCCAUGGGUAACCCAGGAUUGGUGUACGAAGUUUCAGCCGUUCCAAUGCGACACCUCUAGAGUGUCAUCCCCUAGAAUGUCACCUUGGAAAGGCUGAAGCUUCGUGCAC
B20: hsa-mir-216a (structured_RNA)
RNA: GGGAGCAGAAGCAAAUGGUUAACUGUAUGGUGUACGAAGUUUCAGCGUGAGAUGUUCAUACAAUCCCUCACGCUGAAGCUUCGUGCAC
B21: hsa-mir-4773-2 (structured_RNA)
RNA: GGGAAAAUUAUGCCCGCACGACUUCGCUGGUGUACGAAGUUUCAGCUCUGCUUUGAUGAAAUAAAGCAGAGCUGAAGCUUCGUGCAC
B22: hsa-mir-3674 (structured_RNA)
RNA: GGGAACGGCAUCCCGCCAUAUGUGAUUCGGUGUACGAAGUUUCAGCGGCCGUUUGAGAUGUCCGCUGAAGCUUCGUGCAC
B23: hsa-mir-599 (structured_RNA)
RNA: GGGAGUGUUCACCGUAGCUCACCCCAGUGGUGUACGAAGUUUCAGCGGACAGGGAUUCUUUUCACUGUUGCUGAAGCUUCGUGCAC
B24: hsa-mir-553 (structured_RNA)
RNA: GGGAUAUGUACCCGGUGUCGAAUAUCAAGGUGUACGAAGUUUCAGCUUUUGUCUGAGCUGAAGCUUCGUGCAC
B25: hsa-mir-4421 (structured_RNA)
RNA: GGGAAAUCCUGCCGUGAGUUAGCCACUCGGUGUACGAAGUUUCAGCAGUUGAACACUUGUUGGGACAACCUGCUGAAGCUUCGUGCAC
B26: hsa-mir-3610 (structured_RNA)
RNA: GGGACCGCAAGUACAGGGAGAUUUCGAUGGUGUACGAAGUUUCAGCGAGUGAAUCGCUGAAGCUUCGUGCAC

The first assay has as its target T1, LIN28A. The assay can be described thus: FOREST: bead pull-down of RNA structure library v1, barcode microarray; U1A/LIN28A: 20 mM HEPES pH 7.5, 80 mM KCl, 20 mM NaCl, 10% glycerol, 2 mM DTT, 0.1 ug/uL BSA, 4 C; BG4/CIRBP/DHX36: 10 mM Tris-HCl pH 7.5, 100 mM KCl (or LiCl),; high values mean tight binding.
Molecule B1 came in with a binding signal of -1.15 z-score.

The molecule B2 came in with a binding signal of -1.19 z-score.

For B3, the binding signal is -1.19 z-score.

The molecule B4 gave a binding signal of -1.15 z-score.

In turn, B5 gave a binding signal of -1.18 z-score.

In the case of B6, the binding signal is -1.23 z-score.

Molecule B7 displayed a binding signal of -1.16 z-score.

Molecule B8 gave a binding signal of -1.23 z-score.

In the case of B9, the binding signal is -1.16 z-score.

As to B10, the binding signal was -1.23 z-score.

B11 registered a binding signal of -1.16 z-score.

As to B12, the binding signal was -1.19 z-score.

The molecule B13 registered a binding signal of -1.24 z-score.

B14 returned a binding signal of -1.22 z-score.

For B15, the binding signal was -1.22 z-score.

The molecule B16 came in with a binding signal of -1.23 z-score.

Molecule B17 showed a binding signal of -1.19 z-score.

In turn, B18 displayed a binding signal of -1.2 z-score.

Regarding B19, the binding signal is -1.17 z-score.

As to B20, the binding signal was -1.16 z-score.

The molecule B21 yielded a binding signal of -1.18 z-score.

Molecule B22 came in with a binding signal of -1.19 z-score.

With B23, the binding signal is -1.22 z-score.

B24 gave a binding signal of -1.18 z-score.

B25: the binding signal is -1.15 z-score.

Turning to B26, the binding signal is -1.2 z-score.

Another assay has as its target T2, CIRBP. The assay is described as above.
Molecule B1 registered a binding signal of 0.122 z-score.

B2 registered a binding signal of -1.17 z-score.

In turn, B3 had a binding signal of -0.177 z-score.

In turn, B4 yielded a binding signal of -1.72 z-score.

With B5, the binding signal is -1.28 z-score.

Regarding B6, the binding signal was found to be 0.193 z-score.

Molecule B7 registered a binding signal of -0.633 z-score.

With B8, the binding signal was determined as 0.0342 z-score.

The molecule B9 returned a binding signal of -0.928 z-score.

As to B10, the binding signal is -0.357 z-score.

With B11, the binding signal was -2.33 z-score.

In turn, B12 had a binding signal of -1.68 z-score.

Take B13: the binding signal is -0.483 z-score.

In turn, B14 yielded a binding signal of 0.135 z-score.

Molecule B15 showed a binding signal of -1.23 z-score.

In the case of B16, the binding signal is -1.62 z-score.

B17 had a binding signal of 0.144 z-score.

As to B18, the binding signal is -0.884 z-score.

B19 registered a binding signal of -0.343 z-score.

Molecule B20 yielded a binding signal of -0.646 z-score.

In the case of B21, the binding signal was -0.966 z-score.

B22: the binding signal was -0.979 z-score.

Regarding B23, the binding signal is -1.15 z-score.

B24 had a binding signal of 0.499 z-score.

For the molecule B25, the binding signal is -1.03 z-score.

Molecule B26 yielded a binding signal of 0.866 z-score.

Another assay deals with T3, DHX36. The assay is described as above.
With B1, the binding signal is -0.394 z-score.

On to B2, for which the binding signal is -0.332 z-score.

B3 registered a binding signal of -1.02 z-score.

B4 registered a binding signal of -1.56 z-score.

B5: the binding signal is -0.755 z-score.

The molecule B6 had a binding signal of -0.457 z-score.

B7: the binding signal was -0.665 z-score.

As to B8, the binding signal is -0.547 z-score.

Molecule B9 had a binding signal of -0.485 z-score.

In the case of B10, the binding signal was -0.994 z-score.

As to B11, the binding signal was -1.07 z-score.

Take B12: the binding signal is -0.34 z-score.

Molecule B13 registered a binding signal of -0.635 z-score.

Molecule B14 gave a binding signal of 0.495 z-score.

Take B15: the binding signal is -0.351 z-score.

Regarding B16, the binding signal is -0.641 z-score.

B17 registered a binding signal of -0.917 z-score.

For B18, the binding signal is -0.746 z-score.

As for B19, the binding signal was -0.312 z-score.

B20 registered a binding signal of -0.818 z-score.

B21: the binding signal was -0.488 z-score.

For B22, the binding signal was -0.00189 z-score.

B23 yielded a binding signal of -0.858 z-score.

B24 displayed a binding signal of -1.52 z-score.

Molecule B25 had a binding signal of -0.429 z-score.

The molecule B26 came in with a binding signal of -0.786 z-score.
